The entries are a selection whose mix differs from that of the whole data set. Potency and affinity values are given separately. Calls of active or inactive are those of the source.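 The calls were made as follows: active = displacement above 50% at 20 µM plus a fluorescence interference ratio under 1.5; inactive = the rest.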

For the test, the target named is Bcl-2-like protein 10 (Homo sapiens) (UniProt Q9HD36). In words: Bcl-B/TR3 peptide binding disruption – biochemical, fluorescence polarization, FITC-TR3 peptide, selectivity assay for Bfl-1 inhibitor project, primary screen (AID 748).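 Also: plate controls were wells without compound for no effect and wells lacking Bcl-B protein for full effect.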 The following applies: FP displacement of FITC-TR3 peptide from Bcl-B; at 20 µM; hits give high values. (In general: Fluorescence polarisation rises when a labelled molecule tumbles more slowly, as on binding a larger partner.)
As for `CCC(CO)(C(=O)OC1CN2CCC1CC2)c1ccccc1` (stereo not given), the displacement was inactive: -0.3%. With `CCOc1ncccc1C(=O)NCC1(N2CCOCC2)CCCCC1`, the displacement is inactive: -4.4%.

As for `Fc1ccccc1NC1CCN(Cc2ccccc2)CC1`, the displacement is inactive: 7.8%. Turning to `c1ccc(CN2CCC(Nc3ccccc3)CC2)cc1`, the displacement was inactive: 4.3%. Next, `N/C(=N\O)c1c(N)no[n+]1[O-]`: inactive: -2.9%; `O=C(NCC1(N2CCOCC2)CCCCC1)c1cc(=O)[nH]c2ccccc12`: inactive: -1%. The value for `N#CC1(Nc2ccccc2)CCN(CCc2ccccc2)CC1` was inactive: 5.1%. As to `COc1ccc(NC2CCN(CCc3ccccc3)CC2)c(OC)c1`, the displacement was inactive: 14.3%.

Regarding `O=C(OC1CN2CCC1CC2)C1c2ccccc2Oc2ccccc21` (stereo not given), the displacement is inactive: 2.8%. For the compound `O=C(NCC1(N2CCOCC2)CCCCC1)c1cc2ccccc2o1`, the displacement is inactive: -6.8%.

For the origin of these results see PubChem BioAssay AID748 (Sanford-Burnham Center for Chemical Genomics, 2007).
